## Measured affinities in a library of Ab-14 light chain variants

From the AlphaSeq antibody data of Li et al. 2023 (doi:10.1038/s41467-023-39022-2), copy in the FLAb collection.

Target: peptide PDVDLGDISGINAS, taken from heptad repeat 2 (HR2) of SARS-CoV-2 spike.

The variants keep the heavy chain, the linker and the frameworks of Ab-14 (scFv order VH, a 15-residue (Gly4Ser)3 linker, VL).
VH: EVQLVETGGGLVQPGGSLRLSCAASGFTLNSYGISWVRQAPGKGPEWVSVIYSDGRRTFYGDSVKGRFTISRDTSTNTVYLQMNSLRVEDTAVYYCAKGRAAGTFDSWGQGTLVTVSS
VL: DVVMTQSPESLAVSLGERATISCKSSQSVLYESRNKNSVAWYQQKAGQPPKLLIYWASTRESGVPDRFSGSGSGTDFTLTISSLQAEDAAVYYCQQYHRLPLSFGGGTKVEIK

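The parent was found by panning a naive human phage display library on the peptide. Designed CDR sequences, proposed from the first random library and measured here. Several design methods are mixed in this list. AlphaSeq pools MATa yeast showing the antibodies with MATalpha yeast showing the peptide. Pairs that bind mate more often; barcode pairs of the diploids are counted by sequencing. Read counts were normalised to the haploid input and turned into Kd by a linear fit to BCL2-family pairs of known affinity, for each replicate. The assay was run in six technical replicates.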

Each variant is given by its three light chain CDRs, as the data file delimits them; those of the parent are KSSQSVLYESRNKNSVA, WASTRES, QQYHRLPLS.
Variants here have at most six changes.
Affinities are written as log10 Kd with Kd in nM; a lower number is a better binder.
Where no diploid with the target was found in that replicate, the entry reads "ND": below detection, most likely a poor binder, though not proof of it.

- KSSQSNLYESRNKNSVA / EASTREN / QQYHRLPLS -> 0.74, 0.54, 0.45, 0.37, 0.36, 0.70
- KVSQSVEYESRNKNSVA / EASTRES / QQYHRLPLS -> 0.08, -0.30, -0.27, -0.21, -0.36, 0.02
- KASQSVLFQSRNKNSVA / DASTRES / QQYHRLPLS -> 0.16, -0.02, 0.21, 0.01, 0.06, -0.04
- KSSQSVLYESNNKNSVA / WASTRES / QQTHRLPLF -> ND, ND, ND, ND, ND, ND
- KSGCGWLYESRNKNSVA / GASTRES / QQYHRLPLS -> 0.79, 0.65, 0.53, 0.76, 0.91, 0.90
- KMSQSVLLESRNKNSVA / WDSTRES / QQYHRLPLC -> 1.05, ND, 1.23, 1.65, 1.19, 2.09
- KSSPSVLYESHNKNSVA / NASTRMD / QQYHRLPLS -> 0.04, 0.07, -0.16, -0.40, 0.35, 0.24
- KLSQSDLMESRNKNSVA / EASTRES / QQYHRLPLS -> -0.09, -0.02, -0.18, -0.31, -0.47, 0.24
- KSSQSTLYESRNKNSVA / WASTRES / QQYHVLPLS -> 1.51, 3.37, ND, 2.96, 2.61, 3.25
- KISQSVLYESRNKNAVA / NASTRMS / QQYHRLPLS -> 0.13, 0.13, -0.02, -0.04, -0.06, 0.16
- KVSQSVLYESRNKNSVA / DASTRSS / QQYHRLPLS -> -0.01, -0.14, -0.23, -0.47, -0.26, -0.30
- KLSQSYLYESRNKNNVA / EASTRES / QQYHRLPLS -> -0.10, -0.09, -0.12, -0.09, -0.25, -0.17
- KLQQSEGYESRNKNSVA / EASTRES / QQYHRLPLS -> -0.03, -0.17, -0.22, -0.17, -0.29, -0.08
- KFSQSVLMESRNCNSVA / DASTRES / QQYHRLPLS -> 0.79, 0.80, 0.61, 0.58, 0.89, 0.82
- KVSQSMLYESRMKNSVA / NASQRES / QQYHRLPLS -> 0.48, 0.14, 0.29, 0.41, 0.12, 0.11
- KSQQSVLYEDRNKNSVA / WASTRES / QQYHTLPLS -> 2.12, 2.23, ND, 2.86, 1.81, ND
- KVSQSDLYESRNKNSVA / EASQRES / QQYHRLPLS -> -0.16, -0.10, -0.44, -0.60, -0.35, -0.36
- KLSQSFLYEDRVKNSVA / GASTRES / QQYHRLPLS -> 0.19, -0.10, -0.02, -0.12, -0.08, 0.18
- KLQQSDLYESRNKNSVA / NASTRCS / QQYHRLPLS -> 0.35, 0.37, 0.26, 0.17, 0.38, 0.45
- DSSQGVLYESRNKNSVA / QASSRES / QQYHRLPLS -> 1.80, 3.06, 1.82, 1.25, 1.23, 2.16
- KSSQSVLYESLNKTSVA / WGSTRES / QQYHRLPLS -> 2.03, 2.59, 0.72, 2.72, 1.62, 1.61
- KSSISYTYESRNKNSVA / EASTRVS / EQYHRLPLS -> 0.27, 0.03, 0.03, 0.11, 0.23, -0.05
- KQSQSVAMESRNANSVA / DASTRES / QQYHRLPLS -> -0.22, -0.25, -0.08, -0.43, 0.05, -0.29
- KSSQSVLYESRLKNSVA / WASTRES / QQYHRLPLS -> 2.01, ND, ND, 2.54, ND, 1.72
- KVQQSQLYESRNKNSVA / DASTRES / QQYHRLPLS -> 0.00, -0.24, -0.40, -0.06, -0.62, 0.09
- KVSQSVEYESRNKNSVA / NASTRES / QQYHRLPLS -> 0.68, 0.12, ND, 0.00, 1.01, 1.16
- KSSQSVLYESRNKYSVA / WASTRES / QQYHRLPLS -> 1.64, 1.73, 1.95, 1.75, 2.84, 2.38
- KISESVLYESTNKNSVA / WASTRPS / QQYHKLPLS -> ND, 1.30, ND, 2.63, 2.45, 1.64
- KSSQSVLMESRNCNSVA / DASTRES / QQYHRLPLS -> 0.26, -0.06, 0.30, -0.09, 0.01, 0.09
- KSSQSALYESRNKNSVA / WASTRES / QQYERLPLS -> 2.01, ND, 1.52, 1.59, 1.19, 1.23
- KSSQSVMYESRNKNSVA / WASTRAS / QQYHRLPLS -> 1.72, 1.82, 1.32, 2.37, 2.27, 2.29
- KLSQSVDYESRNKNSVA / AASTRES / QQYHRLPLS -> -0.04, -0.06, -0.26, -0.19, -0.20, -0.23
- KSSQSVLYASRNKNSVA / WASTRES / QQYHRLPLS -> ND, 1.86, 1.79, 2.31, ND, 2.18
- KLSQSELYESRNKNSVA / NASTRFS / QQYHRLPLS -> 0.56, 0.33, 0.44, 0.14, 0.23, 0.51
- KSSQSVLYESTNKNSVA / KASTRES / QQYHRLPLS -> 0.70, 0.99, 1.04, 0.99, 0.91, 0.86
- KQSQSVLPEWRNKNSVA / DASTRES / QQYHRLPLS -> 0.49, 0.56, 0.12, -0.11, 0.15, -0.01
- KMSQSHLYESRNKNNVA / DASTRES / QQYHRLPLS -> -0.27, -0.37, -0.47, -0.60, -0.44, -0.33
- MSSQSVLLESRNKNSVA / WASTRES / QQYHRLLLS -> ND, ND, ND, ND, ND, ND
- KLSQSELYESRNKNSVA / SASTRCE / QQYHRLPLS -> -0.13, -0.39, -0.36, -0.45, -0.29, -0.26
- KSSQSDLYESRNKNSVA / WASTRES / QQYHRLPGS -> ND, ND, ND, ND, ND, ND
- KLPQSVLYESRNKNSVA / HASTRED / QDYHRLPLS -> 0.06, -0.25, -0.16, -0.40, -0.29, -0.03
- KLEGSMLYESRNKNSVA / NASTRES / QQYHRLPLS -> -0.12, -0.37, -0.41, -0.54, -0.34, -0.21
- KLSQSVLYESRNKNSVA / DASTRES / QQYHRLPLM -> -0.30, -0.27, -0.36, -0.35, -0.43, -0.22
- KFSPSVLYEDRTKNSVA / NASTRES / QQYHRLPLS -> 0.18, 0.04, -0.33, -0.10, 0.06, 0.05
- KLSQSVLMESRNVNNVA / EASQRES / QQYHRLPLS -> ND, 1.36, 1.54, 0.61, 1.08, 1.17
- KLSFSELYESRNKNSVA / NASTRES / QQYHRLPLS -> -0.06, -0.11, -0.20, -0.33, -0.09, -0.10
- KVPQSNLYESRNKNSVA / EASTRES / QQYHRLPLS -> 0.09, 0.31, -0.02, -0.04, -0.04, -0.03
- KLSQSELYESRNKNSVA / SASQRLS / QQYHRLPLS -> -0.08, -0.08, -0.09, -0.18, -0.18, -0.12
- KLSQSVWYEERNKNSVA / NASKRES / QQYHRLPLS -> -0.02, 0.26, 0.04, -0.30, -0.51, 0.17
- KLDQSVLYESRNKNSVA / NASQRLS / QQYHRLPLS -> -0.15, -0.34, -0.25, -0.49, -0.32, -0.15
- KFSQSELYESRNKNSVA / NASTRCS / QQYHRLPLS -> -0.04, 0.13, -0.03, 0.08, -0.05, 0.07

From the list, the first 3 with no signal in any replicate:

* KSSQSVLYESNNKNSVA / WASTRES / QQTHRLPLF -> ND, ND, ND, ND, ND, ND
* MSSQSVLLESRNKNSVA / WASTRES / QQYHRLLLS -> ND, ND, ND, ND, ND, ND
* KSSQSDLYESRNKNSVA / WASTRES / QQYHRLPGS -> ND, ND, ND, ND, ND, ND

The parent sequence was in this pool as ten entries: three were never detected, three once, and four in most replicates, with averages from 0.34 to 2.37.
Nonspecific signal, from three strains lacking the peptide, appeared in 4% of pairings of all light chain designs, centred on 2.64 (5% of these signals below 1.59); values are not corrected for it.
The authors' rule: three or more of the six replicates give a measured affinity, fewer mean a poor binder.
Values of this round are not directly comparable with the first-round values of the same sequences.